{"source": "patent US20260265280A1", "about": "“Prevention/Treatment of Ischemic Reperfusion Injury” (Rev Therapeutics, priority 2023, published 2026)", "assay": "Thermodynamic solubility assay (shake flask, HPLC-UV) in PBS", "format": "physicochemical", "conditions": "PBS pH 7.4, shaken 24 hr at room temperature (25±2° C.)", "procedure": "Solubility Study: The thermodynamic solubility assay employed was the shake flask method followed by HPLC analysis. The method prepared a saturated solution of the compound, followed by an assay of the solution using HPLC and UV detection. […] About 18 mg compound powder was weighed and placed in a 2 mL glass vial, then PBS buffer was introduced into the vial to obtain a 30-60 mg/mL target concentration. This solution was vortexed for 2 minutes. The solutions were incubated and shook on an orbital shaker for 24 hr at room temperature (25±2° C.). About 500 μL solubility solution was transferred into a new MultiScreen filter plate (Membrane of polycarbonate), filtered by millipore vacuum manifold, and collected in the filtrate as the TS solution. The filtrate was diluted with PBS buffer by a factor of 20 fold to make it diluent. Three UV standard solutions (20, 200, 2000 μg/mL) were injected into HPLC from low to high concentration, followed by testing of the diluent. Testing samples were injected in duplicate. The filtrate was analyzed by HPLC equipped with UV, and the solubility was calculated based on acquired peak areas and dilution factors with a standard external method."}
{"substance": "[4-[[9-[(3S)-Tetrahydro furan-3-yl]-8-(2,4,6-trifluoroanilino)purin-2-yl]amino]cyclohexyl] disodium phosphate [Compound Q7]", "values": [{"measurement": "Thermodynamic Solubility in PBS", "result": 29.99, "unit": "mg/mL"}]}
